Laboratory results from publication PMC12395388 (Regulatory toxicology and pharmacology : RTP, 2024).

Experiments:
Conditions in all cases: 30 vs 60 min
[1] = system: Salmonella typhimurium TA100; test: Preincubation Ames test, strain TA100; format: cell-based
[2] = system: E. coli WP2 uvrA (pKM101); test: Preincubation Ames test, strain WP2 uvrA; format: cell-based, Escherichia coli
[3] = system: Salmonella typhimurium TA1535; test: Preincubation Ames test, strain TA1535; format: cell-based
[4] = system: Salmonella typhimurium TA98; test: Preincubation Ames test, strain TA98; format: cell-based

Measured: Effectiveness of time of preincubation for most effective S9

CCN(CC)N=O [SM-2, N,N-Diethylnitrous amide]
60min = 30min: all assays above
